# Yeast mating assay B: variants of the scFv Ab-14

Antigen: PDVDLGDISGINAS, a 14-residue peptide of the SARS-CoV-2 spike HR2 region.

Parent scFv Ab-14: VH joined to VL by three GGGGS repeats. Changes lie in the light chain CDRs alone.
VH: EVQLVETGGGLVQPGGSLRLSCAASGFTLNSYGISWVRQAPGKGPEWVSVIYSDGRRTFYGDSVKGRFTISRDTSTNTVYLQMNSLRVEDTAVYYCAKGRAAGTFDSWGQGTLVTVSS
VL: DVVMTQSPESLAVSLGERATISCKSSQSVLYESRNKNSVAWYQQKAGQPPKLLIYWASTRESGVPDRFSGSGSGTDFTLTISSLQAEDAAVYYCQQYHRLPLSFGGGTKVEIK

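The parent was found by panning a naive human phage display library on the peptide. The variants were designed computationally from a first round of random CDR variants and then made and measured. Group labels follow the data file (Ctrl: baseline library sampled from a position-specific scoring matrix, with some repeated check sequences; Rand: our label for a block that the file lists under HC and that is probably the random mutants of the ten best first-round binders; GP: Gaussian process model; HC: hill climbing; Gen: genetic algorithm; Gibbs: Gibbs sampling; a sequence that several methods proposed may carry one label only). Affinity was read by AlphaSeq, a pooled yeast mating assay with surface-displayed partners. The frequency of each diploid, read from paired DNA barcodes, reflects how well the two displayed proteins bind. Scores were corrected for input abundance and mapped to Kd with protein pairs of known affinity run in the same pool. Each pool was mated in six replicate cultures.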

The parent's light chain CDRs are KSSQSVLYESRNKNSVA, WASTRES, QQYHRLPLS; each variant's own CDRs replace them letter for letter. This list holds designs with at most six substitutions. The read-out is the apparent dissociation constant on a log10 scale (nM): the lower, the stronger. Replicates are averaged; those with no signal do not enter the mean. Where no diploid with the target was found in any replicate, the entry reads "nd": below detection, most likely a poor binder, though not proof of it. Order: sorted from the lowest average up, undetected variants last. Empty control strains, which show no peptide, gave a signal in 4% of pairings with all light chain designs; the median was 2.64 and 95% of these signals were weaker than 1.59. No background was subtracted. The parent sequence was in this pool as ten entries: three were never detected, three once, and four in most replicates, with averages from 0.34 to 2.37. In the paper, a design with two or fewer of six values counts as a poor binder. A sequence measured in both rounds can read differently, since the two assays cover different ranges.

| CDR-L1 | CDR-L2 | CDR-L3 | group | mean log10 Kd (nM) | replicates with signal |
|---|---|---|---|---|---|
| KVSQSELYESRNKNSVA | EASTREE | QQYHRLPLS | GP_Gen | -0.60 | 6/6 |
| KLYQSVLYESRNKNNVA | GASTRES | QQYHRLPLS | GP_Gen | -0.53 | 6/6 |
| KLSQSQLYESRNKNSVA | QASQRES | QQYHRLPLS | GP_Gen | -0.46 | 6/6 |
| HLSMSVLYESRNKNSVA | NASTRES | QQYHRLPLS | GP_HC | -0.45 | 6/6 |
| KLEQSTLYESRNKNSVA | NASTRLS | QQYHRLPLS | GP_Gen | -0.33 | 6/6 |
| KLQQSELYESRNKNSVA | GASTRCE | QQYHRLPLS | GP_Gibbs | -0.23 | 6/6 |
| KLSQSDLYESRNKNSVA | GASTREQ | QQYHRLPLS | GP_Gen | -0.22 | 6/6 |
| KVSQSWLYEDRNKNSVA | NASQRES | QQYHRLPLS | GP_Gen | -0.21 | 6/6 |
| KMEQGVLYESRNKNSVA | DASVRES | QQYHRLPLS | GP_HC | -0.21 | 6/6 |
| KSSQSVLFEPRNKNSVA | DASTRES | QQYWRLPLS | Rand | -0.20 | 6/6 |
| KLLQSTLYESRNKNSVA | NASTRLS | QQYHRLPLS | GP_HC | -0.17 | 6/6 |
| KLPQSVLYESRNKNSVA | DASTRLS | QQYHRLPLS | GP_Gen | -0.15 | 6/6 |
| KLQQSWLYESRNKNSVA | NASTRLD | QQYHRLPLS | GP_Gen | -0.14 | 6/6 |
| KLDQSVLYESRNKNSVA | EASTRES | QQYHRLPLS | GP_Gen | -0.13 | 6/6 |
| KSIQSVLYESRNKNSVA | GASTRES | QQYHRLPLS | Ctrl | -0.11 | 6/6 |
| KLSQSELYESRNKNSVA | NASTRVS | QQYHRLPLS | GP_Gen | 0.17 | 6/6 |
| KSSQSVPYESRNKNSVA | EASTRES | QQYHRLPLS | GP_Gen | 0.18 | 3/6 |
| KSSQSVAGESRNANSVA | DASTRES | QQYHRLPLS | GP_HC | 0.20 | 6/6 |
| KFSQSWLYESRNFQSVA | GASTRES | QQYHRLPLS | GP_HC | 0.21 | 6/6 |
| KLSQSDLYESRNKNSVA | QASQRES | QQYHRLPLS | GP_Gen | 0.22 | 6/6 |
| HSSPSVLYESRNSNSVA | NASTRES | QQYHRLPLS | GP_HC | 0.24 | 6/6 |
| KSSQSDLYESRNGNSVA | NGSTRMD | QQYHRLPLS | GP_Gibbs | 0.26 | 6/6 |
| KSSQSVLYEFRNKNNVA | QASTRES | QQYHRLPLS | Ctrl | 0.31 | 6/6 |
| KWSQGVMGESRNKNSVA | DASTRES | QQYHRLPLS | GP_Gibbs | 0.33 | 6/6 |
| KLYQSTLYESRNQNSVA | NASTRES | QQYHRLPLS | GP_HC | 0.35 | 6/6 |
| HQSPSVLYESRNKNSVA | NASTREV | QQYHRLPLS | GP_HC | 0.37 | 6/6 |
| KLSQSVLMESRNSNSVA | NASTRES | QQYHRLPLS | GP_Gen | 0.38 | 6/6 |
| KFSQWVWYESRTKNSVA | NASTRES | QQYHRLPLS | GP_HC | 0.56 | 6/6 |
| LSSISYYYESPNKNSVA | EASTRES | QQYHRLPLS | GP_HC | 0.57 | 6/6 |
| KSSQSVLYESRNHNSIA | NALTRES | QQYCRLPLS | Ctrl | 0.68 | 6/6 |
| KSLQSVLYESGNKNSVA | HASTRED | QQYHRLPLS | GP_HC | 0.70 | 6/6 |
| KLQQSDLYESRNKNSVA | EASTRLS | QQYHRLPLS | GP_Gen | 0.72 | 6/6 |
| KVSQSELYGSRNKWSVA | NASTRES | QQYHRLPLS | GP_Gibbs | 0.75 | 6/6 |
| KHSQSVEYEARDKNSVA | MASTRMS | QQYHRLPLS | GP_Gibbs | 0.84 | 6/6 |
| KSSQLVLDESRNNNSVA | AASTRES | QQYARLPLS | Ctrl | 0.85 | 6/6 |
| KLQQSTLYESRNPNSVA | WASTRES | QQYHRLPLS | GP_HC | 0.98 | 6/6 |
| KVSQSVLYESDNKNSVA | WASTRES | QQYHRLHLS | Ctrl | 1.01 | 6/6 |
| KSSQSVLYESRYLNSVA | QASTRES | QQYHRLPLS | Ctrl | 1.02 | 6/6 |
| KSSQSVEYESRAKNSVA | QASTRES | QQYHRLPLS | Ctrl | 1.03 | 6/6 |
| KLRQSTKYESRNQNSVA | DASTRES | QQYHRLPLS | GP_HC | 1.12 | 6/6 |
| KSSQSVLYESRNKNSVA | HASTRES | QQYHHLPLS | Ctrl | 1.22 | 6/6 |
| KLRQSTLYESRNKNNVA | WASTRES | QQYHRLPLS | GP_HC | 1.28 | 6/6 |
| KVRQSTLYESRNKNSVA | TASTRES | QQYHRLPLS | GP_HC | 1.30 | 6/6 |
| KMSQSVLYESRNKYSVA | WASTRIS | QQYHRLPLS | Ctrl | 1.56 | 6/6 |
| KSSKSNLMESRNKNSVA | KASTRES | QQYHRLPLS | Ctrl | 1.59 | 6/6 |
| KSSQSVLYESRNKNSVA | SASERES | PQYHRLPLS | Ctrl | 1.61 | 1/6 |
| KSSISYLYESRNKNSVA | EASTREL | QQYHRLPLM | GP_HC | 1.74 | 6/6 |
| KSSQSVLYESRNANSVA | WASTRES | QQYHRLPLA | Ctrl | 1.93 | 1/6 |
| KSSQSVLYESRNKNSVA | WASTRLS | QQYDRLPLS | Ctrl | 1.96 | 6/6 |
| KSSQSVLYESRNKNSVA | YASTRES | QQYARLPTS | Ctrl | 2.03 | 1/6 |
| KSSQSVLYESRNKNSVA | WASKREL | QQYHRLPLS | Ctrl | 2.05 | 2/6 |
| KQSQSVLMESRNKNSVA | DASTRES | QQYHRLPLD | GP_HC | 2.21 | 3/6 |
| KSSMSVVYESRNKNSVA | WASTRES | QQYHREPLS | Ctrl | 2.64 | 4/6 |
| KSSQSVLYESRNKNSVA | GASTRES | QQYHRLPES | Ctrl | 2.71 | 2/6 |
| KSSQSELYESRNCNSVA | WAKTRES | QQYHRLPLS | Ctrl | nd | 0/6 |
| KSSQSALYESFNKNSVA | WASTRES | QQYHYLPLS | Ctrl | nd | 0/6 |
| KSSTSVLYESRNKNSVA | WAVTRES | QQYHRLPLS | Ctrl | nd | 0/6 |
| KMSQSKLYESFNKNNVA | WASTRES | QQYHRLPLS | Ctrl | nd | 0/6 |
| KCSNSVSYESRNKNSVA | WASTTFS | QQYPRLPLS | Ctrl | nd | 0/6 |
| KSSQSVLDESENKNSVA | WASTRES | QQYHRLLLS | Ctrl | nd | 0/6 |
| KLSQAVLYESRNCNSVA | WASTRES | QQYCRLNCS | Ctrl | nd | 0/6 |

3 of these entries, quoted again:

| CDR-L1 | CDR-L2 | CDR-L3 | group | mean log10 Kd (nM) | replicates with signal |
|---|---|---|---|---|---|
| KMSQSKLYESFNKNNVA | WASTRES | QQYHRLPLS | Ctrl | nd | 0/6 |
| KVSQSELYGSRNKWSVA | NASTRES | QQYHRLPLS | GP_Gibbs | 0.75 | 6/6 |
| KLQQSWLYESRNKNSVA | NASTRLD | QQYHRLPLS | GP_Gen | -0.14 | 6/6 |

From the AlphaSeq antibody data of Li et al. 2023 (doi:10.1038/s41467-023-39022-2), copy in the FLAb collection.